Measurements: patent US20080267971A1

Sequences of proteins named here, by UniProt entry; tags and fusion partners are left off. A change or cut given only in a name is not applied to a line headed by its entry.
UniProt O15123: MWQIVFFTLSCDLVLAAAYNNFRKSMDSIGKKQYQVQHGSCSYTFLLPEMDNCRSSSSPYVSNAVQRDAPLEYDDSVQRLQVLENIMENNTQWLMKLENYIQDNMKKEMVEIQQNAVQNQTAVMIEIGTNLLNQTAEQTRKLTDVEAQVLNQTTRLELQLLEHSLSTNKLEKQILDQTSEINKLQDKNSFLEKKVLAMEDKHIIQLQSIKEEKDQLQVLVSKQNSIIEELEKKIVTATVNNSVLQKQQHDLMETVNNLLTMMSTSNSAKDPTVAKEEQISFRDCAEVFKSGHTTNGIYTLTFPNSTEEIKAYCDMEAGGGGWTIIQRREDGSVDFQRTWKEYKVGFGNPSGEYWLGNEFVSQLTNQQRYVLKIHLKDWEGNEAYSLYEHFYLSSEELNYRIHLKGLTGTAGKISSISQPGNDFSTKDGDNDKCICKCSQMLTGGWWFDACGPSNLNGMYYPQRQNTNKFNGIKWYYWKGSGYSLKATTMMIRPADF
UniProt O35608: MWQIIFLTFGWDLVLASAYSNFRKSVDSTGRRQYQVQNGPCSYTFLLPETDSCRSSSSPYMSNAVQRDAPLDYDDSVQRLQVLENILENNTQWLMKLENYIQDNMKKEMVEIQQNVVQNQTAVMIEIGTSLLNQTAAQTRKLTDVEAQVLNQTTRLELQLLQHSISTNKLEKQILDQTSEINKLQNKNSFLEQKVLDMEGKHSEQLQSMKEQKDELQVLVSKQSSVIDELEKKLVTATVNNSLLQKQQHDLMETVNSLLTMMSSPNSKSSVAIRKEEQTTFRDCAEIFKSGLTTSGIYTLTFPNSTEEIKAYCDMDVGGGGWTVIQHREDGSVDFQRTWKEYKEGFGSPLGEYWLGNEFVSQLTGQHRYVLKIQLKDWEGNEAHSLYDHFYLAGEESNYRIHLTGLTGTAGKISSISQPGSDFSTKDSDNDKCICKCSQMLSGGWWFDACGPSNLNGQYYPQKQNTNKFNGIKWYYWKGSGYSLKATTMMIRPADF

T1: Human Ang-1/2 BsmI chimeric molecule (human)
T1 sequence: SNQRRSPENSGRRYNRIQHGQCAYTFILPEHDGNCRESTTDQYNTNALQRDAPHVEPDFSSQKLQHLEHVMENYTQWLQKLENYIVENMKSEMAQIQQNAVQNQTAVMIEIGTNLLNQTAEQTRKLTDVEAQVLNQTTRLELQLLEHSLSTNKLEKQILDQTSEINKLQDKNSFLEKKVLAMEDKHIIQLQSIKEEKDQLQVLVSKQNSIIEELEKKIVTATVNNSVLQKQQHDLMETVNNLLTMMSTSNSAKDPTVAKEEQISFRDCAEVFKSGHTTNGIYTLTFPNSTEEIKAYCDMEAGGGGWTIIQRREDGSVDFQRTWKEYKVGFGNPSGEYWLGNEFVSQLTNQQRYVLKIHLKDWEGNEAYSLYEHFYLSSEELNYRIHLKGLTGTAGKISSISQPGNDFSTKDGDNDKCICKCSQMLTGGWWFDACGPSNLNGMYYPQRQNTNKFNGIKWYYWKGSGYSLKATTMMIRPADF


How the values were obtained:
[1] = biological target: human Angiopoietin-2 (human) (UniProt O15123); assay: inhibition of rhAng-2 binding to its receptor
[2] = biological target: human Ang-2 V345M (human) (UniProt O15123); assay: ELISA
[3] = biological target: T1, Human Ang-1/2 BsmI chimeric molecule (human); assay: ELISA
[4] = biological target: human Ang-2 H375Q (human) (UniProt O15123); assay: ELISA
[5] = biological target: human Ang-2443 (human) (UniProt O15123); assay: ELISA
[6] = biological target: Mouse/Human Ang-2 StuI chimeric molecule (mouse; human) (UniProt O35608); assay: ELISA
[7] = biological target: human Ang-2 changed at positions 365 and 367 (human) (UniProt O15123); assay: ELISA
[8] = biological target: Mouse/Human chimeric Ang-2 with the human StuI-TfiI fragment (mouse/human chimera) (UniProt O35608); assay: ELISA

OD650 in inhibition assay [1] | % of binding to human Ang-2 [2] | % of binding to human Ang-2 [3] | % of binding to human Ang-2 [4] | % of binding to human Ang-2 [5] | % of binding to human Ang-2 [6] | % of binding to human Ang-2 [7] | % of binding to human Ang-2 [8] | Binder
0.043 OD650 | 100% | 100% | 100% | 100% | 100% | 100% | 31% | mAb 5.14.1 (antibody, part only; not given: light chain, V domains shown, part only) VH: QVQLVQSGAEVKKPGASVKVSCKASGYTFTGYYMYWVRQAPGQGLEWMGWINPNSGGTNYAQKFQGRVTMTRDTSISTAYMELSRLRSDDTAVYYCARDQGITVAGPFDYWGQGSLVTVSSA
– | – | – | – | – | – | 100% | – | mAb 5.101.1 (antibody, V domains shown) VH: QVQLVQSGAEVKKPGASVKVSCKASGYTFTGYYMHWVPQAPGQGLEWMGWINPNSGGTNYAQKFQGRVTMTRDTSISTAYMELRRLRSDDTAVYYCARDGGSIPVSGHFDYWGQGTLVTVSS VL: EIVMTQSPATLSVSPGERATLSCRASQSLISNLAWYQQKPGQAPRLLIFGASTRATGIPARFSGSGSGTEFTLTISSLQSEDFAVYYCHQYNNWWTFGQGTKVEIKR
